Test results taken from patent US20240398963A1 (priority 2021, published 2024).

Format: physicochemical
Details: 10 mM PBS buffer (pH=7.4), 37° C., 100 rpm shaker; free drug by HPLC, average release per day
Experimental: The drug release and stability experiments were run using the test compounds. About 2.5±1.0 mg/mL (with regard to conjugate) solution of each test compound was prepared with 10 mM PBS buffer (pH=7.4) in Millipore Amicon® Ultra-0.5 ml 30 k Ultrafiltration centrifuge tube. The solution was kept swelling for 1 h at room temperature and then placed in a shaker at 100 rpm, 37° C. for continuous experiment. At the same time point of each day, samples were centrifuged at 10000 rpm for 1 h. The aliquot was transferred to HPLC vial for analysis. An 0.4 mL of 10 mM PBS buffer was added into the centrifuge tube and continue the experiment.
For the HPLC analysis at each time point, the peak areas of all relevant peaks from the chromatograms were retrieved and the concentration of free drug was calculated. Average release of free drug was calculated based on the sum of free drug and numbers of experiment days. The computing equation is as below.
The sample degradation rate was calculated based on the concentration and degree of substitution (NMR) for conjugated drug with regard to the initial starting point of the experiment (at t=0). The computing equation is as below.

| Substance | Release rate |
| --- | --- |
| Conjugate of HA and 2-((2S,6αS,6βR,7S,8αS,8βS,11αR,12αS,12βS)-2,6β-difluoro-7-hydroxy-6α,8α,10,10-tetramethyl-4-oxo-1,2,4,6α,6β,7,8,8α,11α,12,12α,12β-dodecahydro-8βH-naphtho[2′,1′:4,5]indeno[1,2-d][1,3]dioxol-8β-yl)-2-oxoethyl piperidine-4-carboxylate [Example 21] | 2.05 %/day |
| Conjugate of HA and 2-((6αS,6βR,7S,8αS,8βS,11αR,12αS,12βS)-6β-fluoro-7-hydroxy-6α,8α,10,10-tetramethyl-4-oxo-1,2,4,6α,6β,7,8,8α,11α,12,12α,12β-dodecahydro-8βH-naphtho[2′,1′:4,5]indeno[1,2-d][1,3]dioxol-8β-yl)-2-oxoethyl 14-amino-3,6,9,12-tetraoxatetradecanoate [Example 50] | 9.26 %/day |
| Conjugate of HA and 4-(2-aminoethyl)phenyl (2-((6αS,6βR,7S,8αS,8βS,11αR,12αS,12βS)-6β-fluoro-7-hydroxy-6α,8α,10,10-tetramethyl-4-oxo-1,2,4,6α,6β,7,8,8α,11α,12,12α,12β-dodecahydro-8βH-naphtho[2′,1′:4,5]indeno[1,2-d][1,3]dioxol-8β-yl)-2-oxoethyl) carbonate [Example 29] | 23.90 %/day |
| Conjugate of HA and 4-(aminomethyl)benzyl (2-((6αS,6βR,7S,8αS,8βS,11αR,12αS,12βS)-6β-fluoro-7-hydroxy-6α,8α,10,10-tetramethyl-4-oxo-1,2,4,6α,6β,7,8,8α,11α,12,12α,12β-dodecahydro-8βH-naphtho[2′,1′:4,5]indeno[1,2-d][1,3]dioxol-8β-yl)-2-oxoethyl) carbonate [Example 15] | 0.97 %/day |
| Conjugate of HA and 2-(2-aminoethoxy)ethyl (2-((6αS,6βR,7S,8αS,8βS,11αR,12αS,12βS)-6β-fluoro-7-hydroxy-6α,8α,10,10-tetramethyl-4-oxo-1,2,4,6α,6β,7,8,8α,11α,12,12α,12β-dodecahydro-8βH-naphtho[2′,1′:4,5]indeno[1,2-d][1,3]dioxol-8β-yl)-2-oxoethyl) carbonate [Example 32] | 3.68 %/day |
| Conjugate of HA and 2-((6αS,6βR,7S,8αS,8βS,11αR,12αS,12βS)-6β-fluoro-7-hydroxy-6α,8α,10,10-tetramethyl-4-oxo-1,2,4,6α,6β,7,8,8α,11α,12,12α,12β-dodecahydro-8βH-naphtho[2′,1′:4,5]indeno[1,2-d][1,3]dioxol-8β-yl)-2-oxoethyl 2-(2-aminoethoxy)acetate [Example 28] | 16.89 %/day |
| Conjugate of HA and 2-((2S,6αS,6βR,7S,8αS,8βS,11αR,12αS,12βS)-2,6β-difluoro-7-hydroxy-6α,8α,10,10-tetramethyl-4-oxo-1,2,4,6α,6β,7,8,8α,11α,12,12α,12β-dodecahydro-8βH-naphtho[2′,1′:4,5]indeno[1,2-d][1,3]dioxol-8β-yl)-2-oxoethyl 5-aminopentanoate [Example 24] | 1.64 %/day |
| Conjugate of HA and (1S,2S)-2-aminocyclohexyl (2-((6αS,6βR,7S,8αS,8βS,11αR,12αS,12βS)-6β-fluoro-7-hydroxy-6α,8α,10,10-tetramethyl-4-oxo-1,2,4,6α,6β,7,8,8α,11α,12,12α,12β-dodecahydro-8βH-naphtho[2′,1′:4,5]indeno[1,2-d][1,3]dioxol-8β-yl)-2-oxoethyl) carbonate [Example 30] | 0.94 %/day |
| Conjugate of HA and methyl (S)-2-amino-3-(4-(((2-((6αS,6βR,7S,8αS,8βS,11αR,12αS,12βS)-6β-fluoro-7-hydroxy-6α,8α,10,10-tetramethyl-4-oxo-1,2,4,6α,6β,7,8,8α,11α,12,12α,12β-dodecahydro-8βH-naphtho[2′,1′:4,5]indeno[1,2-d][1,3]dioxol-8β-yl)-2-oxoethoxy)carbonyl)oxy)phenyl)propanoate [Example 33] | 22.57 %/day |
